The results in this text go back to US7785879B1, “Pregnane X receptor compositions, crystals and uses thereof” (Schering Corporation, priority 2005, dated 2010).

The chains behind the UniProt entries cited, without tags or fusion partners. Where a name states a change or a piece, a line headed by the entry shows the natural chain unless it says otherwise.
UniProt O75469: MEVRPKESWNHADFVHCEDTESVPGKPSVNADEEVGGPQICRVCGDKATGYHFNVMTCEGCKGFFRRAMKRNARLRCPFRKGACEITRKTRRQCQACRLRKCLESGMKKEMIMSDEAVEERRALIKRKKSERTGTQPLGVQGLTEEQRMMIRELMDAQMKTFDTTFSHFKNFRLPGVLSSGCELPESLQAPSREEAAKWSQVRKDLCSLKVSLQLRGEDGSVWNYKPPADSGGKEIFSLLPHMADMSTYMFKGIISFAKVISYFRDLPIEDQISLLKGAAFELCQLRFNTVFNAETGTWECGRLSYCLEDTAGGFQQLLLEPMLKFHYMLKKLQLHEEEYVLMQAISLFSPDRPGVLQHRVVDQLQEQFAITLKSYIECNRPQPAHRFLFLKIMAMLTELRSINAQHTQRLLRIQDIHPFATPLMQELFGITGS

This series concerns the target T1, PXR-LBD-L10-SRC (Homo sapiens, UniProt O75469).
T1 sequence (O75469 with tags, fused parts or gaps): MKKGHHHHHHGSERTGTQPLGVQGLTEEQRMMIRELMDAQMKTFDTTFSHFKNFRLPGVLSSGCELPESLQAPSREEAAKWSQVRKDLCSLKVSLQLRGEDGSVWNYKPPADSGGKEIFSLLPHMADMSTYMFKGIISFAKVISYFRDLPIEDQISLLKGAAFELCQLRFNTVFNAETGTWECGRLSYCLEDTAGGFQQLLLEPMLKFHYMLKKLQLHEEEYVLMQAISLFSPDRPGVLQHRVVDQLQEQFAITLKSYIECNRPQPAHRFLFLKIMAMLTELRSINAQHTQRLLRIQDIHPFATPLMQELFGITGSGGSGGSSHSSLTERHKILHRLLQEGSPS
Description: Temperature-dependent circular dichroism, stabilization of PXR-LBD-L10-SRC. As to conditions: 25 uM compound, vs PXR-LBD-L10-SRC apo enzyme. The procedure:
The CD is a function of wavelength.
PXR-LBD-L10-SRC was expressed and purified essentially as set forth above. […] Stabilization of PXR-LBD-L10-SRC in the presence of various substances was measured by temperature-dependent circular dichroism. PXR-LBD-L10-SRC was assayed under the following conditions:
Buffer: 25 mM Hepes, pH 7.9, 150 mM NaCl, 5% glycerol, 10 mM BME,
heating ramp at 2° C./min
temperature range: 30-80° C.

Consider Hyperforin, for which the ΔTm turned out to be 6.8 C.
